# Test results taken from patent US20090081318A1, “TREATMENT OF NEUROADS USING INHIBITORS OF GLYCOGEN SYNTHASE KINASE (GSK)-3” (priority 2005, published 2009).
# Legend:
# [1] = tested on: subjects with HIV-associated cognitive impairment; assay: Proton magnetic resonance spectroscopy (MRS) of brain; assay type: in vivo, human; conditions: for Cho/Cr Basal Ganglia, Treatment Effect / Cho/Cr Centrum Semi-Ovale, Treatment Effect / Cho/Cr Mid-Frontal Gray Matter, Treatment Effect / MI/Cr Basal Ganglia, Treatment Effect / MI/Cr Centrum Semi-Ovale, Treatment Effect / MI/Cr Mid-Frontal Gray Matter, Treatment Effect / NAA/Cr Basal Ganglia, Treatment Effect / NAA/Cr Centrum Semi-Ovale, Treatment Effect / NAA/Cr Mid-Frontal Gray Matter, Treatment Effect: VPA vs. placebo, baseline to week 10, adjusted for baseline
# Experimental: (§1) Proton (1H) magnetic resonance spectroscopy (MRS) and diffusion tensor imaging (DTI) were performed at baseline and week 10, using a 1.5 Tesla General Electric Signa MRI scanner (with twinspeed gradients and EXCITE11 software). Single-voxel proton spectra were acquired from three locations in the brain: midline of the frontal lobes; right (or left) mid-frontal centrum semi-ovale; and right (or left) basal ganglia (BG), and relative peak areas of N-acetyl aspartate (NAA), creatine (Cr), choline (Cho), and myo-inositol (MI) were determined.
# (§2) Changes from baseline were assessed using paired t-tests. Comparisons between treatment arms were based on unequal-variance two-sample t-tests for continuous variables, and Fisher's Exact Tests for categorical variables. Comparisons between treatment arms were adjusted for baseline values using Analysis of Covariance. Primary statistical analyses were performed according to the intention-to-treat principle, using the last-observation-carried-forward imputation strategy for subjects who prematurely dropped out of the study. Secondary analyses excluded such subjects.
# [2] = tested on: subjects with HIV-associated cognitive impairment; assay: Diffusion tensor imaging (DTI) of brain; assay type: in vivo, human; conditions: VPA vs. placebo, baseline to week 10, adjusted for baseline
# Experimental: as §1, §2
smiles,measurement,setting,value
"CCCC(CCC)C(=O)O [Valproic Acid, Valproic acid]","Cho/Cr Basal Ganglia, Treatment Effect",[1]; All Subjects,0.00
same,"Cho/Cr Centrum Semi-Ovale, Treatment Effect",[1]; All Subjects,0.08
same,"Cho/Cr Mid-Frontal Gray Matter, Treatment Effect",[1]; All Subjects,0.10
same,"MI/Cr Basal Ganglia, Treatment Effect",[1]; All Subjects,0.06
same,"MI/Cr Centrum Semi-Ovale, Treatment Effect",[1]; All Subjects,0.07
same,"MI/Cr Mid-Frontal Gray Matter, Treatment Effect",[1]; All Subjects,0.71
same,"NAA/Cr Basal Ganglia, Treatment Effect",[1]; All Subjects,−0.14
same,"NAA/Cr Centrum Semi-Ovale, Treatment Effect",[1]; All Subjects,0.46^2
same,"NAA/Cr Mid-Frontal Gray Matter, Treatment Effect",[1]; All Subjects,0.48
same,"Cho/Cr Basal Ganglia, Treatment Effect",[1]; Impaired Subjects,0.01
same,"Cho/Cr Centrum Semi-Ovale, Treatment Effect",[1]; Impaired Subjects,0.12
same,"Cho/Cr Mid-Frontal Gray Matter, Treatment Effect",[1]; Impaired Subjects,0.17
same,"MI/Cr Basal Ganglia, Treatment Effect",[1]; Impaired Subjects,0.26^4
same,"MI/Cr Centrum Semi-Ovale, Treatment Effect",[1]; Impaired Subjects,0.18
same,"MI/Cr Mid-Frontal Gray Matter, Treatment Effect",[1]; Impaired Subjects,1.23
same,"NAA/Cr Basal Ganglia, Treatment Effect",[1]; Impaired Subjects,−0.17
same,"NAA/Cr Centrum Semi-Ovale, Treatment Effect",[1]; Impaired Subjects,0.83^3
same,"NAA/Cr Mid-Frontal Gray Matter, Treatment Effect",[1]; Impaired Subjects,0.95^1
same,NAA/Cr in the frontal white matter (FWM),"[1]; cognitively impaired subjects on VPA, p=0.006",significant NAA/Cr increase
same,"FA (fractional anisotropy) Basal Ganglia, Treatment Effect",[2]; All Subjects,−0.02
same,"FA (fractional anisotropy) Centrum Semi-Ovale, Treatment Effect",[2]; All Subjects,0.01
same,"FA (fractional anisotropy) Mid-Frontal Gray Matter, Treatment Effect",[2]; All Subjects,0.03
same,"Tra (trace) Basal Ganglia, Treatment Effect",[2]; All Subjects,0.07
same,"Tra (trace) Centrum Semi-Ovale, Treatment Effect",[2]; All Subjects,0.01
same,"Tra (trace) Mid-Frontal Gray Matter, Treatment Effect",[2]; All Subjects,0.01
same,"FA (fractional anisotropy) Basal Ganglia, Treatment Effect",[2]; Impaired Subjects,−0.01
same,"FA (fractional anisotropy) Centrum Semi-Ovale, Treatment Effect",[2]; Impaired Subjects,0.00
same,"FA (fractional anisotropy) Mid-Frontal Gray Matter, Treatment Effect",[2]; Impaired Subjects,0.00
same,"Tra (trace) Basal Ganglia, Treatment Effect",[2]; Impaired Subjects,0.04
same,"Tra (trace) Centrum Semi-Ovale, Treatment Effect",[2]; Impaired Subjects,0.03
same,"Tra (trace) Mid-Frontal Gray Matter, Treatment Effect",[2]; Impaired Subjects,0.02
